The test has as its target 185-bp H3K4-propargyl nucleosome (Xenopus). Put plainly: native gel or EMSA; CoREST complex mixed at various ratios with 185-bp H3K4-propargyl nucleosome; 0.7% agarose gel in 0.5x TB, ethidium bromide then InstantBlue; the propargyl group is designed to couple to FAD in the LSD1 active site.

Values joined by “and” are separate entries in the source; they are usually repeats but may differ in a detail not shown here. Equal values may be shown once.

Among the data in publication PMC7043024 are stoichiometry N values, retold here.

Consider “CoREST ternary complex (LSD1:RCOR1:HDAC1) (from UniProt O60341 1-852; Q13547 1-482; Q9UKL0 86-485)”, for which the stoichiometry N (usually a count of units in the complex or per binding partner) was 1 and 2.
